These results are taken from patent US6645774B1 (Synaptic Pharmaceutical Corporation, priority 1994, dated 2003).

Amino acid sequences for entries named in this document (tags omitted).
UniProt P35367, whole entry: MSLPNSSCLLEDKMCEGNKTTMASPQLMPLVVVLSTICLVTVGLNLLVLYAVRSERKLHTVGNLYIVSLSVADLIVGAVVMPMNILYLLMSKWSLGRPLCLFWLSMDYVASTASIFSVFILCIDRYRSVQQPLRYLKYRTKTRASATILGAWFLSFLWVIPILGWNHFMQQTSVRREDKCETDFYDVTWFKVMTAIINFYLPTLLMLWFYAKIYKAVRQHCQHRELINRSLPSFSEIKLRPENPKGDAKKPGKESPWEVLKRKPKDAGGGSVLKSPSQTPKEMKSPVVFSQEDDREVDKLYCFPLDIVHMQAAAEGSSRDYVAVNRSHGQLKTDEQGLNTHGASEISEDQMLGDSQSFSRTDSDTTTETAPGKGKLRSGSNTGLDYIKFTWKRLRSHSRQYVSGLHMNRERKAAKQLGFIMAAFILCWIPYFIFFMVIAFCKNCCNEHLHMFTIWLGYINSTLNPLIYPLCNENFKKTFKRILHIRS
UniProt P25021, whole entry: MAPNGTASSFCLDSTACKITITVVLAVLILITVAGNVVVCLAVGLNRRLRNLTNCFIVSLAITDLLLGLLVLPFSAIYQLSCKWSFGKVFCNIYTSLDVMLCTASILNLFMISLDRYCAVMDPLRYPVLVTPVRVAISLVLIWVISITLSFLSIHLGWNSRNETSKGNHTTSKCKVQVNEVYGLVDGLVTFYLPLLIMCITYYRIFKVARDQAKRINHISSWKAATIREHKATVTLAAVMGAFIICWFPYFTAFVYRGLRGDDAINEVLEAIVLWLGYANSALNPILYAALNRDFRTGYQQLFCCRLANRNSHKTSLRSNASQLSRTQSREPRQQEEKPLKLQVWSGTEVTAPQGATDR

The Ki is a dissociation constant, usually derived from enzyme kinetics or from competition with a known ligand. A lower Ki goes with a stronger hold on the target.

In test [1] the target is human histamine H1 receptor (Homo sapiens, UniProt P35367). The test can be described thus: biochemical.
For test [2], the target named is human histamine H2 receptor (Homo sapiens, UniProt P25021). Kind of test: biochemical.

On to `Cl.Nc1nc(NC[C@H]2CC[C@H](CNS(=O)(=O)c3cccc4ccccc34)CC2)nc2ccccc12` [Compound 5, trans-Naphthalene-1-sulfonic Acid {4-[(4-amino-quinazolin-2-ylamino)-methyl]-cyclohexylmethyl}-amide Hydrochloride], for which the Ki in test [1] is 224 nM; in test [2] it was 209 nM.
`Cl.c1ccc(Nc2nc(Nc3ccccc3)c3ccccc3n2)cc1` [Compound 1, 2,4-Diphenylamino-quinazoline Hydrochloride]: the Ki in test [1] is 2570 nM; in test [2], 479 nM.
